We go through one compound from patent publication US20060128645A1, “Inhibition of proliferation and infiltration of brain tumor cells caused by expression of ampa-type glutamate receptor subunit” (priority 2002, published 2006).

Protein sequences, listed by entry. Tags and fused reporters are not part of them. Residues count along the entry.
UniProt P42261, 19-906: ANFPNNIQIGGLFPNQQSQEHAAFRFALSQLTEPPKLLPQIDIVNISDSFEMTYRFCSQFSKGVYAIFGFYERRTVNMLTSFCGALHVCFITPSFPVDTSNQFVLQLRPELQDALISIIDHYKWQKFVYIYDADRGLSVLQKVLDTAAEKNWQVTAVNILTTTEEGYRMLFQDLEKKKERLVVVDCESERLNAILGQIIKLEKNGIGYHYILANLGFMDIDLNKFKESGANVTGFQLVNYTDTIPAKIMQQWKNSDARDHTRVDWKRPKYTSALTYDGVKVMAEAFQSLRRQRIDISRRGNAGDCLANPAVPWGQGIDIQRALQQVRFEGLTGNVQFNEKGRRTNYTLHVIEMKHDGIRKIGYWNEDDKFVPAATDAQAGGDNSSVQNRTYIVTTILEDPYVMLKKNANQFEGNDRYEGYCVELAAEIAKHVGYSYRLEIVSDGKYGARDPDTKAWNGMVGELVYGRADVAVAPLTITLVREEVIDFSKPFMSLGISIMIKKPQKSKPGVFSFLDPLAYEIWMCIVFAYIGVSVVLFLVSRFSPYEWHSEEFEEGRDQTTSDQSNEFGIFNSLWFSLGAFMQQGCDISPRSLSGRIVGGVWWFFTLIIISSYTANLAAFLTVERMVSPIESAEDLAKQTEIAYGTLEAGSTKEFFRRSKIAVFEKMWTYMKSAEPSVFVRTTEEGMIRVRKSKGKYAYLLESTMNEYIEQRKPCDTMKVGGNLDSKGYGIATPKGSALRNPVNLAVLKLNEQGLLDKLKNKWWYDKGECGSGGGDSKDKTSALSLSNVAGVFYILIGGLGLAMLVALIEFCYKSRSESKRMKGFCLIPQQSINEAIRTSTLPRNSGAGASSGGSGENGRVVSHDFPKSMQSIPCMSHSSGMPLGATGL

The assay deals with T1, Ca^2+-permeable AMPARs in glioblastoma cells in primary culture (Homo sapiens, UniProt P42261).
T1 construct: To examine functional expression of Ca^2+-permeable AMPARs in glioblastoma cells in primary culture; endogenous in cells; host or cells: primary (explant) cultures of glioblastoma multiforme surgical samples
Description: AMPA-induced [Ca2+]i changes (fura-2 AM) in primary cultured glioblastoma cells. The format is cell-based. On the procedure: Cells were loaded with fura 2-AM (Dojin) at room temperature for 40 min. Fluorescence images were obtained at an excitation wavelength of 340 and 380 nm using the Argus/HiSCA system (Hamamatsu Photonics). The 340/380 nm fluorescence ratio was converted to [Ca^2+]i as described previously (Cell, 88, 49-55, 1997).

With `Cc1onc(O)c1CC(N)C(=O)O` (stereo not drawn) [AMPA, α-amino-3-hydroxy-5-methyl-4-isoxazole propionic acid], under “200 μM AMPA + 100 μM CTZ, 16 culture dishes”, the “cells in which the increase in [Ca^2+]i was detected” value is listed as 65±15%. Also, the “[Ca^2+]i during application of AMPA together with CTZ” value (200 μM AMPA + 100 μM cyclothiazide, primary culture, n=150) worked out at 285 ± 120 nM.
